Several values for one entry are separate records, joined by “and”; a condition that tells them apart may be missing. Identical values can stand only once.
Assays:
Assay type in all cases: binding
MspA-M = MspA-M (Mycolicibacterium smegmatis, UniProt A0QR29, D117N/D118M/D120N/D145R/D161R/E166K)
Au(III) embedded MspA-M [1] = target: T1, Au(III) embedded MspA-M (Mycolicibacterium smegmatis, UniProt A0QR29, D117N/D118M/D120N/D145R/D161R/E166K)
Au(III) embedded MspA-M [2] = target: T1, Au(III) embedded MspA-M; remark: listed apart in the source

Sequences of proteins named here, by UniProt entry; tags and fusion partners are left off. Residues count along the entry.
UniProt A0QR29, 28-211 D117N/D118M/D120N/D145R/D161R/E166K limits assumed: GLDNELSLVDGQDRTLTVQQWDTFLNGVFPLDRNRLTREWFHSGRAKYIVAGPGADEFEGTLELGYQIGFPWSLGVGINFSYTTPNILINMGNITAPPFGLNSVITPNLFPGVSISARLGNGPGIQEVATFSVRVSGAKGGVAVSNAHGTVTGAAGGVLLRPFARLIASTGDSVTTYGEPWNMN

SMILES	biothiol binding events without Au(III) embedment (MspA-M)	Current blockade (ΔI0−1, Cys) (Au(III) embedded MspA-M [1]) [pA]	Cys sensing events as share of all detectable events (Au(III) embedded MspA-M [1]) [%]	Dwell time (τoff, Cys) (Au(III) embedded MspA-M [1])	mean ΔI/I0, three independent experiments (Au(III) embedded MspA-M [1])	ΔI/I0, Gaussian fitting, simultaneous discrimination (Au(III) embedded MspA-M [1])	Dwell time (τoff, Hcy) (Au(III) embedded MspA-M [1])	Dwell time (τoff) (Au(III) embedded MspA-M [2])
N[C@@H](CS)C(=O)O [L-Cysteine, L-cysteine]	No Cys, Hcy or GSH binding event were observed	25 ± 2	96	3.18 ms and 3.48 ms and 3.04 ms	0.104±0.0006	0.105±0.005		
N[C@@H](CCC(=O)N[C@@H](CS)C(=O)NCC(=O)O)C(=O)O [L-Glutathione, L-glutathione]	No Cys, Hcy or GSH binding event were observed			2.82 ms and 2.27 ms and 2.19 ms	0.154±0.011			
N[C@@H](CCS)C(=O)O [L-Homocysteine, L-homocysteine]	No Cys, Hcy or GSH binding event were observed				0.128±0.004	0.128±0.013	2.94 ms and 1.65 ms and 2.50 ms	
CSCC[C@H](N)C(=O)O [L-Methionine, L-methionine]								8.07 ± 3.18 s and 10.87 ± 1.87 s and 11.22 ± 2.35 s
